Compound activity (PubChem)
RAD52 anneal inh: RAD52 (human) annealing inhibition; P43351; AID 651710; inhibition, % at 18.7 µM; 360,000 compounds, 0.46% hits; recombinant RAD52 DNA annealing, FRET fluorescence;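 active = every replicate showing at least 50% inhibition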
SIRT5 block: sirtuin-5 (human) deacylase inhibition; Q9NXA8; Purified SirT5, succinyl-peptide AMC, trypsin-coupled fluorescence; inhibition, % at 15 µM; 330,000 compounds, 1.1% hits; in the data active = inhibition above about 15%
AF4-AF9 inh: MLL-AF4/AF9 protein interaction inhibition; AlphaScreen, biotin-AF4 peptide binding to FLAG-AF9; inhibition, % at 10 µM; 350,000 compounds, 0.47% hits;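 active = every replicate reaching a set inhibition limit, whatever the replicate mean, cut at about 25% in these data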
UUG fidelity: modulators of start codon recognition fidelity in yeast; AID 602363; activity score, % at 18.7 µM; S. cerevisiae UUG-firefly luciferase reporter, luminescence/redox ratio; actives 0.13% (n = 350,000);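 active = replicate mean at a twofold rise or more, about +100% in these data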;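 note: firefly luciferase made from a UUG start codon reports start codon fidelity; reporter light over untreated wells divided by growth signal over untreated wells; some hits fall short of that in this replicate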
RAD54 branch: blocks human RAD54 Holliday junction branch migration | Q92698 | FAM/BHQ fluorescence | inhibition, % at 10.4 µM | 360,000 compounds, 0.14% hits;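 active = mean normalized replicate activity at least 40 and at least half of replicates scoring 40 or more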;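 also: inhibitors cause a drop in the FAM fluorescence signal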
E-selectin induc: E-selectin induction on HUVECs. 260,000 compounds, 0.37% hits. activation, % at 7.58 µM. HUVEC E-selectin immunofluorescence imaging; normalized: neutral wells 0, TNF-alpha wells 100. AID 686992;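 active = mean E-selectin-positive cell signal at least 10% of the positive control, reached in at least 60% of replicates, without over 20% cell loss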
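System: HUVEC / Compound: single concentration / Signal: immunofluorescence imaging / Read-out: percent E-selectin-positive cells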
Numbers stand for hits; . = inactive; / = no result given. Hits are enriched below; roughly 1.8% of the tested compounds scored in any of these assays.

SMILES | RAD52 anneal inh | SIRT5 block | AF4-AF9 inh | UUG fidelity | RAD54 branch | E-selectin induc
Cc1cc(N=Nc2ccc(Cl)cc2)cc(CN2CCCC2)c1O | . | / | 49 | . | . | .
Cc1c(O)c(CN2CCCCC2)cc2c3c(c(=O)oc12)CCC3 | / | / | / | . | . | /
CO[C@H]1CN(C)C(=O)c2ccc(NC(=O)c3cnccn3)cc2OC[C@@H](C)N(C)C[C@H]1C | / | / | / | / | . | .
Cc1ccccc1C[n+]1cccc2ccccc21 | . | . | 50 | . | . | .
O=C(C[n+]1cccc2ccccc21)c1ccccc1 | / | / | / | . | . | /
CCOCCCn1c(=N)c(S(=O)(=O)c2ccccc2)cc2c(=O)n3cc(C)ccc3nc21 | . | . | 26 | . | . | /
COC(=O)[C@@H]1[C@@H](CO)[C@@H]2Cn3c(ccc(C4=CCCCC4)c3=O)[C@@H]2N1C(=O)C1CC1 | . | . | . | . | . | .
Cn1nc(-c2ccc(Cl)cc2)c2cc(C(=O)NCCN3CCOCC3)sc21 | . | / | . | . | . | /
Cn1nc(-c2ccc(Cl)cc2)c2cc(C(=O)NCCCN3CCOCC3)sc21 | / | / | / | . | 84 | /
COc1ccc(NC(=O)C2CCC2)cc1S(=O)(=O)Nc1cc(C)ccc1Br | . | / | . | . | . | /
COc1ccc(NC(=O)[C@H](C)NC(N)=O)cc1S(=O)(=O)Nc1cc(C)ccc1Br | . | 16 | . | . | . | .
C[C@H]1CN([C@@H](C)CO)C(=O)c2cccc(NS(C)(=O)=O)c2O[C@H]1CN(C)C(=O)NC1CCCCC1 | . | . | . | . | . | /
Cc1ccc(C(=O)NC2CCCc3c2cnn3-c2ccc(F)cc2F)cn1 (stereo not given) | . | 20 | . | . | . | .
COc1ccc(NC(=O)Nc2ccc3c(c2)CC(=O)N([C@@H](C)CO)C[C@H](C)[C@@H](CN(C)S(=O)(=O)c2ccccc2)O3)cc1 | . | . | . | / | / | .
COc1ccc(NC(=O)N(C)C[C@@H]2Oc3ncc(C#CCN(C)C)cc3C(=O)N([C@@H](C)CO)C[C@@H]2C)cc1 | . | . | . | . | . | .
C[C@@H]1CN([C@H](C)CO)C(=O)c2cc(C#Cc3ccc(F)cc3)cnc2O[C@@H]1CN(C)C(=O)Nc1ccc(F)cc1 | . | . | . | . | . | .
COc1ccc(NC(=O)N(C)C[C@H]2Oc3ncc(C#CCN(C)C)cc3C(=O)N([C@@H](C)CO)C[C@@H]2C)cc1 | . | 22 | . | . | . | .
C/C=C/c1cnc2c(c1)C(=O)N([C@@H](C)CO)C[C@H](C)[C@@H](CN(C)C(=O)Nc1ccc(F)cc1)O2 | . | 16 | . | / | . | .
C[C@H](CO)N1C[C@H](C)[C@H](CN(C)C(=O)Nc2ccc(F)cc2)Oc2ncc(C#Cc3ccc(C(F)(F)F)cc3)cc2C1=O | . | 16 | . | . | . | .
C/C=C/c1cnc2c(c1)C(=O)N([C@@H](C)CO)C[C@H](C)[C@@H](CN(C)C(=O)Nc1ccc(C(F)(F)F)cc1)O2 | . | . | . | . | . | .
COc1ccc(OC)c(NC(=O)Nc2nc(C(N)c3ccccc3Cl)cs2)c1 (stereo not given) | . | / | 26 | . | . | .
COc1cc(CNC(=O)Nc2nc(C(N)c3ccccc3)cs2)cc(OC)c1OC (stereo not given) | . | 21 | . | . | . | .
CCCC(=O)Nc1ccc2c(c1)C(=O)N(C)C[C@H](OC)[C@@H](C)CN(Cc1ccncc1)[C@@H](C)CO2 | / | / | / | / | / | .
C[C@@H]1CN([C@@H](C)CO)C(=O)Cc2cc(NC(=O)C3CC3)ccc2O[C@H]1CN(C)Cc1ccc(Oc2ccccc2)cc1 | . | . | . | . | . | .
CCCCC[C@@H](C)N1C[C@H](COCc2ccccc2)Oc2cc(N3CCC[C@@H]3CO)ccc2S1(=O)=O | . | 27 | . | / | / | .
SMILES | RAD52 anneal inh | SIRT5 block | AF4-AF9 inh | UUG fidelity | RAD54 branch | E-selectin induc
CN(C)C(=O)c1cccc(-c2ccccc2[C@H]2[C@@H](C#N)N(C(=O)C3CCC3)[C@@H]2CO)c1 | . | . | . | / | / | .
N#C[C@H]1[C@H](c2ccccc2C2=CCCCC2)[C@H](CO)N1C(=O)C1CCOCC1 | . | 17 | . | / | / | .
CN(C)C(=O)c1cccc(-c2ccccc2[C@H]2[C@H](C#N)N(C(=O)C3CCC3)[C@H]2CO)c1 | 62 | . | . | / | / | .
CC(=O)N1[C@H](CO)[C@H](c2ccc(C#CC3CCCCC3)cc2)[C@H]1CNCC(C)C | . | . | . | / | / | .
C[C@@H]1CN([C@@H](C)CO)C(=O)c2cc(C#CC3CC3)cnc2O[C@@H]1CN(C)C(=O)c1ccccc1 | . | . | . | . | . | 97
C[C@H]1CN([C@@H](C)CO)C(=O)c2cc(C#CC3CCCCC3)cnc2O[C@@H]1CN(C)C(=O)Nc1ccccc1 | . | 15 | . | . | . | .
C[C@@H]1CCCCO[C@H](CN(C)C(=O)Nc2ccc3c(c2)OCO3)[C@H](C)CN([C@@H](C)CO)C(=O)c2cc(NS(C)(=O)=O)ccc2O1 | . | . | . | . | . | .
CS(=O)(=O)N1CCc2cc(C(=O)NC3CC3)ccc21 | . | . | . | / | / | 27
CS(=O)(=O)N1CCc2cc(S(=O)(=O)NCCNS(=O)(=O)c3ccc4c(c3)CCN4S(C)(=O)=O)ccc21 | . | . | . | . | . | 53
CCCNC(=O)c1ccc2c(c1)CCN2S(C)(=O)=O | . | . | . | / | / | /
Cn1cc(C=C2C(=O)OC3(CCCCC3)OC2=O)c2ccccc21 | . | . | 26 | . | . | .
Cn1cc(C=C2C(=O)CC(C)(C)CC2=O)c2ccccc21 | . | . | . | / | / | /
CCNC(=S)NCc1ccc2[nH]c(C)cc2c1 | . | . | 27 | . | . | .
C=C(C)C(=O)Oc1ccc(N=Nc2ccc(C)cc2)ccc1=O | . | . | 28 | . | . | /
COc1cccc(S(=O)(=O)Nc2ccc3c(c2)OC[C@H](C)NC[C@@H](C)[C@H](OC)CN(C)C3=O)c1 | . | . | . | . | . | .
Cc1cc(N)n(-c2ccc(C(=O)O)cc2)n1 | . | . | . | . | . | /
CCc1ccc(S(=O)(=O)c2ccc(-n3nc(C)cc3N)cc2)cc1 | . | 112 | . | / | / | /
O=C(C[C@@H]1C=C[C@H](NC(=O)CN2CCOCC2)[C@H](CO)O1)NC1CCC1 | . | . | . | . | . | .
O=C(C[C@@H]1C=C[C@@H](NC(=O)CN2CCOCC2)[C@H](CO)O1)NC1CCCCC1 | . | 26 | . | . | . | .
O=C(CCN1CCCCC1)N[C@@H]1C=C[C@H](CC(=O)N2CCC(Cc3ccccc3)CC2)O[C@H]1CO | . | 15 | . | . | . | .
O=C(C[C@H]1C=C[C@H](NC(=O)CN2CCOCC2)[C@H](CO)O1)NCCc1ccccc1 | . | 17 | . | . | . | .
O=C(CCN1CCCCC1)N[C@H]1C=C[C@@H](CC(=O)N2CCC(Cc3ccccc3)CC2)O[C@@H]1CO | . | . | . | . | . | .
CC(=O)Nc1ccc2c(c1)C(=O)N(C)[C@@H]1CC[C@H](CC(=O)NCCCN3CCOCC3)O[C@@H]1CO2 | . | . | . | . | . | .
